Measured affinities in a library of Ab-14 light chain variants

Antigen: PDVDLGDISGINAS, a 14-residue peptide of the SARS-CoV-2 spike HR2 region.

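The starting antibody came from a phage panning campaign against this peptide. The variants were designed computationally from a first round of random CDR variants and then made and measured. Group labels follow the data file (Ctrl: baseline library sampled from a position-specific scoring matrix, with some repeated check sequences; Rand: our label for a block that the file lists under HC and that is probably the random mutants of the ten best first-round binders; GP: Gaussian process model; HC: hill climbing; Gen: genetic algorithm; a sequence that several methods proposed may carry one label only). The assay is AlphaSeq: two haploid yeast populations carry antibody and antigen on their surface. Mating (16 h, 30 °C) was followed by selection of diploids and sequencing of their barcodes. The ratio of observed to expected reads was calibrated, replicate by replicate, on BCL2-family standards whose Kd was known from biolayer interferometry. Each pool was mated in six replicate cultures.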

The variants keep the heavy chain, the linker and the frameworks of Ab-14 (scFv order VH, three GGGGS repeats, VL).
VH: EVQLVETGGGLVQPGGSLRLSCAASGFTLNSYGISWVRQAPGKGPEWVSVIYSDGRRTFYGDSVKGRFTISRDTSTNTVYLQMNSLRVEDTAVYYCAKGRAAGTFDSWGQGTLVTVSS
VL: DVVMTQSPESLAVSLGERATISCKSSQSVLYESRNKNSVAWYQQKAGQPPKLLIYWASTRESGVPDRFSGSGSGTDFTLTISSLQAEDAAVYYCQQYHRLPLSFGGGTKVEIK

Changes read parent residue, position, new residue, counted from the first residue of the VL shown. This list holds designs with at most six substitutions. Values are apparent Kd, the geometric mean of the replicates that gave a signal; lower means stronger binding. A pair that was not seen in any replicate is written "no signal"; this usually means weak binding, but a binder can also be missed. A sequence measured in both rounds can read differently, since the two assays cover different ranges. The authors averaged sequences with at least three values out of six and counted those with two or fewer as poor binders. As a blank, each scFv also met three strains without target: over all light chain designs, 4% of these pairings were detected, typically at 430 nM and seldom below 38 nM. For each scFv, signals with the empty controls are counted beside the result. The parent sequence was in this pool as ten entries: three were never detected, three once, and four in most replicates, with averages from 2.2 nM to 240 nM. A sequence that the file lists under several names has all its replicates pooled.

Variant Q27I W56E [Ctrl+GP_HC] gave 4.6 nM (12 of 12 replicates; controls 2 of 36).
Variant L30E R34F W56N R99K [Ctrl] gave 4.2 nM (6 of 6 replicates; controls 4 of 18).
Variant S26Q V29Q L30E W56N S62D [GP_HC] gave 2.0 nM (6 of 6 replicates; controls 1 of 18).
Variant S25T S26E S28G W56G T59V [GP_HC] gave 390 pM (6 of 6 replicates; controls 0 of 18).
Variant S25L L30E [Ctrl] gave 3.2 nM (6 of 6 replicates; controls 0 of 18).
Variant S25L N37W W56G [GP_Gen] gave 3.1 nM (6 of 6 replicates; controls 2 of 18).
Variant E32D W56G [Ctrl] gave no signal (0 of 6 replicates; controls 0 of 18).
Variant Q27I V29Y R34M W56H A57G [GP_HC] gave 1.4 nM (6 of 6 replicates; controls 0 of 18).
Variant K24S S25N Q27T Y97T [Ctrl] gave no signal (0 of 6 replicates; controls 1 of 18).
Variant L30C Y31E R34W W56H L100N [Ctrl] gave 62 nM (6 of 6 replicates; controls 0 of 18).
Variant S25V V29W N35M W56N T59Q [GP_Gen] gave 820 pM (6 of 6 replicates; controls 0 of 18).
Variant K24A Q27L L102N [Ctrl] gave no signal (0 of 6 replicates; controls 0 of 18).
Variant S25L V29E W56S E61S [GP_Gen] gave 3.0 nM (6 of 6 replicates; controls 0 of 18).
Variant S38A Q95F [Ctrl] gave 270 nM (2 of 6 replicates; controls 0 of 18).
Variant S25L V29H L30E W56N [GP_Gen] gave 620 pM (6 of 6 replicates; controls 1 of 18).
Variant S26L S38R W56H E61M S62D L100N [Rand] gave no signal (0 of 6 replicates; controls 0 of 18).
Variant V29A Y97S R99C [Ctrl] gave no signal (0 of 6 replicates; controls 0 of 18).
Variant K36S R99Y [Ctrl] gave 3.0 µM (2 of 6 replicates; controls 1 of 18).
Variant Q27M V29Y K36E W56E S62Q [GP_HC] gave 940 pM (6 of 6 replicates; controls 1 of 18).
Variant S25L S26Q V29D W56E E61C [GP_Gen] gave 980 pM (6 of 6 replicates; controls 1 of 18).
Variant S25L S26Q W56N T59Q S62D [GP_Gen] gave 420 pM (6 of 6 replicates; controls 1 of 18).
Variant V29W W56N T59A S62V [GP_HC] gave 500 pM (6 of 6 replicates; controls 1 of 18).
Variant S25L S26P S28Q W56G [GP_HC] gave 650 pM (6 of 6 replicates; controls 1 of 18).
Variant V29W V39Q W56G A57R [Rand] gave 500 pM (6 of 6 replicates; controls 0 of 18).
Variant S25L Q27E S38N W56N [GP_Gen] gave 250 pM (6 of 6 replicates; controls 3 of 18).
Variant Q27P V29S Y31A R34G V39I [Ctrl] gave 17 nM (6 of 6 replicates; controls 0 of 18).
Variant K24E S25Q S26M W56D S58K [Rand] gave 13 nM (6 of 6 replicates; controls 1 of 18).
Variant Q27I L30S S38N [Ctrl] gave 9.3 nM (5 of 6 replicates; controls 0 of 18).
Variant S25L L30P W56E S62V [GP_Gen] gave 980 pM (6 of 6 replicates; controls 4 of 18).
Variant S25L L30M W56E [GP_Gen] gave 2.7 nM (6 of 6 replicates; controls 1 of 18).
Variant S25G S33W R34D T59I S62W [Ctrl] gave no signal (0 of 6 replicates; controls 0 of 18).
Variant S25L V29H W56D E61C [GP_Gen] gave 1.2 nM (6 of 6 replicates; controls 1 of 18).
Variant V29I R34G W56N [GP_HC] gave 1.5 nM (6 of 6 replicates; controls 0 of 18).
Variant V29M L30A [Ctrl] gave 1.0 nM (6 of 6 replicates; controls 0 of 18).
Variant S25L W56G S103I [GP_Gen] gave 560 pM (6 of 6 replicates; controls 0 of 18).
Variant S25I S33D W56D L100Y [Ctrl] gave 2.7 nM (6 of 6 replicates; controls 2 of 18).
Variant K24F S25L V29D W56N [GP_Gen] gave 420 pM (6 of 6 replicates; controls 1 of 18).
Variant Q27G V29W W56G T59A S62V [GP_HC] gave 9.4 nM (6 of 6 replicates; controls 2 of 18).
Variant S25Y S26Y V29G W56Q R99L [GP_HC] gave 2.7 nM (6 of 6 replicates; controls 2 of 18).
Variant Y31A [Ctrl] gave no signal (0 of 6 replicates; controls 0 of 18).
Variant L30I A57G L100P [Ctrl] gave no signal (0 of 6 replicates; controls 0 of 18).
Variant Q27W Y31M W56D [GP_HC] gave 990 pM (6 of 6 replicates; controls 0 of 18).
Variant S25L V29F S33Q W56N [GP_Gen] gave 530 pM (6 of 6 replicates; controls 0 of 18).
Variant K24H Q27P V29Y W56N S103Q [GP_HC] gave 1.4 nM (6 of 6 replicates; controls 0 of 18).
Variant S25T W56S [Ctrl] gave 4.8 nM (6 of 6 replicates; controls 0 of 18).
Variant S25L W56S E61S [GP_Gen] gave 460 pM (6 of 6 replicates; controls 1 of 18).
Variant Q27E Y31F W56N S103R [GP_HC] gave 27 nM (6 of 6 replicates; controls 0 of 18).
Variant S25M V29H W56N [GP_Gen] gave 740 pM (6 of 6 replicates; controls 0 of 18).
Variant W56N L102I [Ctrl] gave 8.5 nM (6 of 6 replicates; controls 1 of 18).
Variant Q27W V29K R34G W56H S62D [GP_HC] gave 4.6 nM (6 of 6 replicates; controls 0 of 18).

The closing 4 entries, repeated:

| changes | group | Kd (apparent) | replicates with signal | empty controls |
|---|---|---|---|---|
| Q27E Y31F W56N S103R | GP_HC | 27 nM | 6 of 6 | 0 of 18 |
| S25M V29H W56N | GP_Gen | 740 pM | 6 of 6 | 0 of 18 |
| W56N L102I | Ctrl | 8.5 nM | 6 of 6 | 1 of 18 |
| Q27W V29K R34G W56H S62D | GP_HC | 4.6 nM | 6 of 6 | 0 of 18 |

Source: Li et al. 2023 (doi:10.1038/s41467-023-39022-2), MIT Lincoln Laboratory and A-Alpha Bio; data file from the FLAb repository.